The subject of test [1] is Rattus norvegicus. Put plainly: Effect on electrocardiogram in anaesthetized Wistar rat assessed as change in QRS interval at 1 mg/kg, iv after 1 min by electrocardiography. The class given is functional.
The subject of test [2] is Rattus norvegicus. Put plainly: Effect on electrocardiogram in anaesthetized Wistar rat assessed as change in QRS interval at 1 mg/kg, iv after 15 mins by electrocardiography. The class given is functional.

As for `COc1ccccc1OCCNCC(O)COc1cccc2[nH]c3ccccc3c12` (configuration not stated) [CARVEDILOL], the Activity in the test on Rattus norvegicus [1] is recorded as 22 ms; in the test with Rattus norvegicus [2] it was 23.2 ms.

Source of the values: ChEMBL document CHEMBL1153880, “Synthesis and adrenolytic activity of 1-(1H-indol-4-yloxy)-3-{[2-(2-methoxyphenoxy)ethyl]amino}propan-2-ol and its enantiomers. Part 1” (Eur J Med Chem, 2009).
